From patent US20140296129A1

Sequences of proteins named here, by UniProt entry; tags and fusion partners are left off. Residues count along the entry.
UniProt P25101, 21-427: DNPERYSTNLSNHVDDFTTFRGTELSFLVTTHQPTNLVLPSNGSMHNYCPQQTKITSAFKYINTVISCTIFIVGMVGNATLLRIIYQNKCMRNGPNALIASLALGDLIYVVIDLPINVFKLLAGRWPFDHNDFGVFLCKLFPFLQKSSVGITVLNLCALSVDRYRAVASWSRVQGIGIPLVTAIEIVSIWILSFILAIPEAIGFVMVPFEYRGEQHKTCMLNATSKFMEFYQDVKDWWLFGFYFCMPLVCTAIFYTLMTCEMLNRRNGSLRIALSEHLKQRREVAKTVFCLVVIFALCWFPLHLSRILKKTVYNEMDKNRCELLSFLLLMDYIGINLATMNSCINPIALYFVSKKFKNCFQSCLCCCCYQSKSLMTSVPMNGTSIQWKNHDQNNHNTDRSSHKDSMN

Molecular target: endothelin receptor A (ETRA) on human uterine smooth muscle cells (human) (UniProt P25101)
Test: cell-based or functional assay

## endothelin-1 (ET-1) (from UniProt P05305 53-73) (peptide)
  contraction of hUtSMC collagen lattices (relative lattice area, % of control without ET-1): 78%
